Patent publication US9180114B2, “Neurodegenerative diseases and methods of modeling” (PRESIDENT AND FELLOWS OF HARVARD COLLEGE, priority 2008, dated 2015)

System: Hb9::GFP human ES cell-derived motor neurons on SOD1G93A glia
Assay: Survival of human ES cell-derived motor neurons co-cultured with SOD1G93A glia treated with prostaglandin D2 receptor antagonists
Assay type: cell-based
Conditions: 10 days of treatment

O=C(O)CCn1c2c(c3ccccc31)C[C@H](NS(=O)(=O)c1ccc(F)cc1)CC2 [BAY-u3405]
Hb9::GFP cells remaining (cell death / survival of motor neurons) on SOD1G93A glia: had no effect on promoting survival
